# Some compounds may have been tested in ways that are not shown here.
# By UniProt entry, the sequences of proteins in these tests, tags left out.
# UniProt P49146, whole entry: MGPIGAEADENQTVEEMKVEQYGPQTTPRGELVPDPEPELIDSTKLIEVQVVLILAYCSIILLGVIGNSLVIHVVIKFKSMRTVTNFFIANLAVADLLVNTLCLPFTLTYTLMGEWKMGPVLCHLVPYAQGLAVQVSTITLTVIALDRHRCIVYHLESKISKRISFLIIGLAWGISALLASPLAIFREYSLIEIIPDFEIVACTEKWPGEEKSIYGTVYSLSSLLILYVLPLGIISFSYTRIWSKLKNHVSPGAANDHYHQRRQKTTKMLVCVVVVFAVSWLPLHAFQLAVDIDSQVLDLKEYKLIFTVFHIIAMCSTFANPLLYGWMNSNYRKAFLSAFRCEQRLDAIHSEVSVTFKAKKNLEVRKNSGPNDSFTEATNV
# Target: Neuropeptide Y receptor type 2 (Homo sapiens, UniProt P49146)
# Assay: Displacement of [125I]-PYY from human NPYY2 receptor
smiles,measurement,value
CC(=O)N1CCc2ccc(N(C(=O)/C=C/c3ncc[nH]3)C3CCN(Cc4ccccc4)CC3)cc21,IC50,17 µM

# — ChEMBL document CHEMBL3102719, “Ligands of the neuropeptide Y Y2 receptor” (Bioorg Med Chem Lett, 2014)
